{"source": "paper PMC9060023", "about": "(Skin Health and Disease, 2021)", "test_system": "human MC1R variants (V60L, V92M, R151C, R163Q)", "assay": "Cyclic AMP assay in HEK293 cells stably expressing hMC1R variants", "conditions": "response of V60L and R151C mutants weaker than wild type"}
{"smiles": "COC[C@H]1CN(C(=O)[C@]2(F)CN(C3CCCC3)C[C@H]2c2ccc(OC)cc2)C[C@@H]1c1ccc(C(F)(F)F)cc1N1CCC(C(=O)O)CC1", "note": "[MT‐7117, dersimelagon]", "values": [{"measurement": "Intracellular cAMP in cells with variants of MC1R and wild type", "result": "increased cAMP in a concentration‐dependent manner"}]}
